By UniProt entry, the sequences of proteins in these tests, tags left out. Where a name states a change or a piece, a line headed by the entry shows the natural chain unless it says otherwise.
UniProt P49146, whole entry: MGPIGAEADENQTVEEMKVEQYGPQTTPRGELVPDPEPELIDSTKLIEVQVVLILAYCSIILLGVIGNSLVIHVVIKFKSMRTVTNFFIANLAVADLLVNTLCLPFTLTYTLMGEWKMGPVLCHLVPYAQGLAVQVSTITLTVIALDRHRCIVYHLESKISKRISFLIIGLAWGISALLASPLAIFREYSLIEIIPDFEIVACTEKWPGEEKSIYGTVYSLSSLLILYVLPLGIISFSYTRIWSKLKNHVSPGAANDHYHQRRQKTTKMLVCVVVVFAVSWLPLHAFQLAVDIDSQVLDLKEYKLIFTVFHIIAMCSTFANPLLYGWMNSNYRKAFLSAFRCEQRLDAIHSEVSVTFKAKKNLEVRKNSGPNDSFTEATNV
UniProt P50391: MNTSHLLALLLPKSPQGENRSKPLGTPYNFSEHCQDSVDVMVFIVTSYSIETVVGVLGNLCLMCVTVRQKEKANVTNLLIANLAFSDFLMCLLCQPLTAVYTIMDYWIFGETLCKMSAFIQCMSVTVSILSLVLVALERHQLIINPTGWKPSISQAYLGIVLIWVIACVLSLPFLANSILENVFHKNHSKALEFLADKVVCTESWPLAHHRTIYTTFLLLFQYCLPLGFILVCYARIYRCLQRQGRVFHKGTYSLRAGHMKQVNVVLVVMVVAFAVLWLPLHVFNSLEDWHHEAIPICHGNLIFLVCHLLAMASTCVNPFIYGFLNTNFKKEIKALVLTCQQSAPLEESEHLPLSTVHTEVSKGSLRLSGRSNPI

In patent publication US20080261871A1, “Y2/Y4 Selective Receptor Agonists for Therapeutic Interventions” (priority 2004, published 2008):

Tests used:
human Y2 receptor = human Y2 receptor (human, UniProt P49146 1-381); experiment: cell-based or functional assay
human Y4 receptor = human Y4 receptor (human, UniProt P50391 1-375); experiment: cell-based or functional assay

Binder	EC50, inositol phosphate turnover (human Y2 receptor)	EC50, inositol phosphate turnover (human Y4 receptor)
APLEPVYPGDNATPEQMAQYAADLRRYINMITRQRY (C-terminal amide, PP analog with Ile at 31 and Gln at 34) [[Ile31,Gln34]PP]	6.5 nM	0.91 nM
APLEPVYPGDNATPEQMAQYAADLRRYINMVTRQRY (C-terminal amide, PP analog with Val at 31 and Gln at 34) [[Val31,Gln34]PP]	9.9 nM	–
